{"source": "paper PMC10993414", "about": "“Water Quality Monitoring with the Multiplexed Assay MitoOxTox for Mitochondrial Toxicity, Oxidative Stress Response, and Cytotoxicity in AREc32 Cells” (Environmental Science & Technology, 2024)", "key": {"AREc32 cells": {"test_system": "AREc32 cells", "conditions": "human"}, "[1]": {"test_system": "mitochondrial membrane potential (MMP) in AREc32 cells", "conditions": "human"}}, "data": [{"smiles": "N#Cc1cc(Br)c(O)c(Br)c1", "note": "[Bromoxynil]", "values": [{"measurement": "Cytotoxicity ImageExpress IC10", "setting": "AREc32 cells", "result": 187, "unit": "µM"}, {"measurement": "Cytotoxicity ImageExpress log(IC10 (M))", "setting": "AREc32 cells", "result": -3.73, "unit": "M"}, {"measurement": "SRcytotoxicity", "setting": "[1]", "result": 8.5}]}]}
